The source of these data is US8946289B2, “Manassatin compounds and methods of making and using the same” (Duke University, priority 2008, dated 2015).

In data set [1] the test system is HIF-1. As to the kind of experiment: ODD-Luc assay (luciferase reporter) for HIF-1 inhibitory activity. Type of data set: cell-based, mouse. As for the experimental part: The HIF-1 inhibitory of compound 1, 18, and the anti-diol diastereomer 22 were assessed with the ODD-Luc assay (Li, F.; Sonveaux, P.; Rabbani, Z. N.; Liu, S.; Yan, B.; Huang, Q.; Vujaskovic, Z.; Dewhirst, M. W.; Li, C. Y. Mol. Cell 2007, 26, 63-74, which is incorporated by reference). 4T1-ODD-Luc cells, stably transfected with the oxygen-dependent-degradation (ODD) domain of HIF-1α and a firefly luciferase reporter, were seeded in the 24-well plate at a density of 10^5 cells/well. After 16-hour incubation, cells were treated with 240 μM of Cobalt (II) Chloride (Sigma-Aldrich, St. Louis, Mo., USA) and serially diluted compounds for 24 h. To measure the luciferase signals, luciferin (150 mg/mL) was added and the plates were imaged using the Xenogen IVIS imaging system and associated Living Image software (Xenogen, Alameda, Calif.). Luciferase expression/activity was detected and quantified as relative light units (RLUs). Results are means±SD, n=3.
To determine HIF-1 inhibitory activity of 31 and 33, a luciferase-reporter based assay was used as a primary screen. […] Luciferase signals were detected and quantified as relative light units (RLUs).

The test system of data set [2] is 4T1 cells. The protocol: Like MTT (3-(4,5-d imethylthiazol-2-yl)-2,5-diphenyltetrazolium bromide, a tetrazole), MTS was reduced into a formazan product by living cells in the presence of an electron coupling reagent (phenazine methosulfate, PMS). The absorbance of the formazan was detected at 490 nm. […] Then cells were washed and incubated another three hours with cell medium containing MTS/PMS solution at 37° C. (21% O2, 5% CO2). Relative cell survival rate was determined on the O.D. values measured at 490 nm.

As for `COc1ccc([C@@H](O)[C@@H](C)Oc2ccc(C3OC(c4ccc(O[C@H](C)[C@H](O)c5ccc(OC)c(OC)c5)c(OC)c4)[C@H](C)[C@H]3C)cc2OC)cc1OC` (some centres unmarked) [Compound 33], the “less active than manassantin A (fold)” value in data set [1] stood at 10 fold.

As to `COc1ccc([C@@H](O)[C@@H](C)Oc2ccc(C3OC(c4ccc(O[C@H](C)[C@H](O)c5ccc(OC)c(OC)c5)c(OC)c4)[C@H](C)[C@H]3C)cc2OC)cc1OC` (some centres unmarked) [manassantin A], the “therapeutic window IC50 (cytotoxicity)/IC50 (HIF-1 inhibition)” value in data set [2] stood at 100.
